Results from article PMC9833666, “Designing and identifying β-hairpin peptide macrocycles with antibiotic potential” (Science Advances, 2023).

System: Single-donor human red blood cells
Experiment: Hemolysis assay
Type: cell-based
Protocol: Single-donor human red blood cells (Innovative Research, no. IWB3ALS) were washed in PBS and adjusted to a concentration of 1 × 10^9 cells/ml. Each peptide was added individually to 200 μl of cells at a concentration of either 300 μg/ml (SySA library) or 128 μg/ml (SySA-5 optimization library) in a 96-well polypropylene plate (Corning, 3879). PBS alone and 1% Triton X-100 were used for background normalization and 100% hemolysis, respectively. Each reaction was set up in triplicate. Plates were incubated for 3 hours at 37°C. Following incubation, samples were centrifuged at 800g for 20 min, and 100 μl of supernatant was transferred to a flat-bottom 96-well plate (Genesse, 25-104). Percent hemolysis for each sample was determined by normalizing the absorbance at 540 nm for each sample to the average background and dividing by the average absorbance for 1% Triton X-100 (100% hemolysis). Error bars represent 1 SD of triplicate samples.

## Protegrin-1 [reference compound]
Hemolysis at 128 µg/ml, fold change relative to SySA-5
  Fold Change Hemolysis: 32.7
Human red blood cells 1x10^9 cells/ml, peptide 300 μg/ml, 3 h 37°C, relative to 1% Triton X-100, A540, ± 1 SD, n=3
  Hemolysis (%): 41.84 ± 5.03%
